Experimental findings from article PMC8206213, “An L-2-hydroxyglutarate biosensor based on specific transcriptional regulator LhgR” (Nature Communications, 2021) are described below.

Each structure is given as a SMILES string. Values joined by “and” are separate entries in the source; they are usually repeats but may differ in a detail not shown here. Equal entries are not always repeated.

Common to all, as to assay type: binding, Pseudomonas putida W619
Assay [1] deals with LHGFR0N7C. The experiment in a line: Influence of other compounds on the response of purified LHGFR0N7C to L-2-HG. The following applies: Suppl. Fig. 9b; L-2-HG alone or with the compound; three replicates. The method, then:
(§1) Purified L-2-HG biosensors and different compounds were diluted by 50 mM Tris-HCl buffer (pH 7.4), mixed together in a black 96-well plate at a volume ratio of 3:1, and the fluorescence intensities were measured using an EnSight microplate reader (PerkinElmer, USA) with excitation at 430 nm, emission at 485 nm (mTFP) and 528 nm (Venus). […] The [L-2-HG], Kd, and p refer to the L-2-HG concentration, apparent dissociation constant, and Hill slope, respectively. Emission spectra were recorded at 430 nm excitation, in steps of 2 nm. Excitation spectra were recorded using emission at 550 nm, excitation from 380 to 535 nm in steps of 2 nm.

The test system of assay [2] is LHGFR0N7C. The assay is described as follows: Specificity of purified LHGFR0N7C, emission ratio with 240 μM compounds. The following applies: 240 μM compound. The method, then: as §1
In assay [3] the test system is LHGFR0N3C. The experiment in a line: Influence of other compounds on the response of purified LHGFR0N3C to L-2-HG. As to conditions: Suppl. Fig. 9a; L-2-HG alone or with the compound; three replicates. The method, then: as §1
Assay [4] relates to LHGFR0N3C. The experiment in a line: Specificity of purified LHGFR0N3C, emission ratio with 240 μM compounds. As to conditions: 240 μM compound. The method, then: as §1

With `O=C(O)CC(C(=O)O)C(O)C(=O)O` (stereo not drawn) [Isocitrate], the Emission ratio in the assay on LHGFR0N7C [1] was 2.567 and 2.522 and 2.6156; in the assay on LHGFR0N7C [2] it was 1.698 and 1.723 and 1.716; in the assay on LHGFR0N3C [3] it was 1.979 and 2.009 and 2.114; in the assay on LHGFR0N3C [4] it was 1.348 and 1.426 and 1.4104. In addition, the “Induction of emission ratio changes” value in the assay with LHGFR0N7C [2] and in the assay on LHGFR0N3C [4] was “None” throughout.
